Source: article PMC8129907, “Vancomycin bone and tissue concentrations following tibial intraosseous administration – evaluated in a porcine model” (Journal of Bone and Joint Infection, 2021)
Where two headings read alike, the source gives them in different places. Marks after values point to notes of the source that are not given here.

Details: pig, 500 mg intraosseous, no tourniquet, microdialysis, mean (SD), n = 8

CN[C@H](CC(C)C)C(=O)N[C@H]1C(=O)N[C@@H](CC(N)=O)C(=O)N[C@H]2C(=O)N[C@H]3C(=O)N[C@H](C(=O)N[C@H](C(=O)O)c4cc(O)cc(O)c4-c4cc3ccc4O)[C@H](O)c3ccc(c(Cl)c3)Oc3cc2cc(c3O[C@@H]2O[C@H](CO)[C@@H](O)[C@H](O)[C@H]2O[C@H]2C[C@](C)(N)[C@H](O)[C@H](C)O2)Oc2ccc(cc2Cl)[C@H]1O [vancomycin]
Cmax (peak drug concentration) (intramedullary canal in the tibia): 8.2 (4) ^a µg/mL
Cmax (peak drug concentration) (subcutaneous tissue): 7.7 (3) ^a µg/mL
Cmax (peak drug concentration) (synovial fluid of the knee joint): 6.5 (4) ^a µg/mL
Cmax (peak drug concentration) (tibial cortical bone): 1 (1) µg/mL
